# According to paper PMC9182007, “Statistical Methods in the Study of Protein Binding and Its Relationship to Drug Bioavailability in Breast Milk” (Molecules, 2022):
# The chains behind the UniProt entries cited, without tags or fusion partners. Residues count along the entry.
# UniProt P02769, 25-607: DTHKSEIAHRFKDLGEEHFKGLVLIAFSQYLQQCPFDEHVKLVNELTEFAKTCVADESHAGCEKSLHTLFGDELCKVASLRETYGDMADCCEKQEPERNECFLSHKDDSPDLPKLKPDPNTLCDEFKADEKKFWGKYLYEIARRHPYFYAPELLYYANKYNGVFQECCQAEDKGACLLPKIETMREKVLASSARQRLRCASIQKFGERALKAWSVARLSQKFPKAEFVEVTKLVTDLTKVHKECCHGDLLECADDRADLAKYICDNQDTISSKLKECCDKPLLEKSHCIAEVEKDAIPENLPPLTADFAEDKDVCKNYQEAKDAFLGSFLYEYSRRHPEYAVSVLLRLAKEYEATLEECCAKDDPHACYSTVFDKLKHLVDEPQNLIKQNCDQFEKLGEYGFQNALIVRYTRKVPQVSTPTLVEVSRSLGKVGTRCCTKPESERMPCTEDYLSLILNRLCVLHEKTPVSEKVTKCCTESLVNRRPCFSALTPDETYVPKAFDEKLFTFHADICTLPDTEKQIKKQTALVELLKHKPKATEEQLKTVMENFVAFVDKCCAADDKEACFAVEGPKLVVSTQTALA
# UniProt P02768, 25-609: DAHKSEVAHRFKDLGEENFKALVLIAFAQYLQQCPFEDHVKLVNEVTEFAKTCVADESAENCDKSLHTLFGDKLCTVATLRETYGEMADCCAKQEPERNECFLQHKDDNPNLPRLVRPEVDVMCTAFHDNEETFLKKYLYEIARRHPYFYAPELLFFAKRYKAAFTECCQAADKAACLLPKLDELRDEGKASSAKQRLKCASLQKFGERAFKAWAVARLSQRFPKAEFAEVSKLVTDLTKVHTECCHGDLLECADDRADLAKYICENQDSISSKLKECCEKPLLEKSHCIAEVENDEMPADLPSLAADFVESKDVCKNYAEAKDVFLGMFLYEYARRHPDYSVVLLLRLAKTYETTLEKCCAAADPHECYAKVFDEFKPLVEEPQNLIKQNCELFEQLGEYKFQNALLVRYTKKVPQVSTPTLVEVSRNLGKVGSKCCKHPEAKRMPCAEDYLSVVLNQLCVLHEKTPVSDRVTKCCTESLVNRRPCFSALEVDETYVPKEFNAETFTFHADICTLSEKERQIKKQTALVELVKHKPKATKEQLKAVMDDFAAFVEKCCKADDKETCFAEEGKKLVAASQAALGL
# Read-outs that look alike come from different tables or passages of the source.
# What was measured:
# [1] = cited from earlier work
# [2] = Table S1; source not stated; cited from earlier work
# [3] = Milk-to-plasma (M/P) drug concentration ratio obtained in vivo, from literature; details: Table S1, scale of drug penetration into milk 1-4
# [4] = biological target: T1, bovine serum albumin (BSA) (Bos taurus, UniProt P02769); assay: NP TLC on plates impregnated with bovine serum albumin; format: binding; details: for NP (Rf, BSA-impregnated NP plate): Table S3, NP plate impregnated with 2 mg/mL BSA, pH 7.4 mobile phase
# T1 construct: purchased Sigma Aldrich
# [5] = biological target: T1, bovine serum albumin (BSA); assay: RP TLC on plates impregnated with bovine serum albumin; format: binding; details: for RP (Rf value from the RP plate impregnated with 2 mg/mL BSA solution): Table S8, external group; for RP (Rf, BSA-impregnated RP plate): Table S4, RP plate impregnated with 2 mg/mL BSA, pH 7.4 mobile phase
# [6] = biological target: human serum albumin (HSA) (Homo sapiens, UniProt P02768); details: pH 7.4
# [7] = Table S1, coded 1/0; ref DrugBank [7]; cited from earlier work
# [8] = NP TLC on non-impregnated control plates; format: physicochemical; details: Table S3, non-impregnated NP plate; acetonitrile/acetate buffer pH 7.4/methanol 60:20:20
# [9] = RP TLC on non-impregnated control plates; format: physicochemical; details: Table S4, non-impregnated RP plate; acetonitrile/acetate buffer pH 7.4/methanol 60:20:20
# [10] = system: plasma protein; details: Table S1, plasma protein binding given as fraction; ref DrugBank [7]; cited from earlier work
# [11] = Table S1, milk/plasma drug concentration ratio, in vivo
# [12] = Table S6, external group (n = 38)
structure (smiles),measurement,setting,value
Cc1nnc2n1-c1ccc(Cl)cc1C(c1ccccc1)=NC2 [alprazolam],M/P,[1]; [11],0.18
same,BB vivo,[2],0.019
same,M/P code,[3],1 (Code 1 corresponds to drugs with an M/P value <0.40—completely safe)
CCC[C@@H]1C[C@@H](C(=O)N[C@@H]([C@H]2O[C@H](SC)[C@H](O)[C@@H](O)[C@H]2O)[C@H](C)Cl)N(C)C1 [clindamycin],M/P,[1]; [11],0.3
same,M/P code,[3],1 (Code 1 corresponds to drugs with an M/P value <0.40—completely safe)
CNCC[C@H](Oc1cccc2ccccc12)c1cccs1 [duloxetine],NP (Rf value from the NP plate impregnated with 2 mg/mL BSA solution),"[4]; Table S8, external group",0.33
same,RP (Rf value from the RP plate impregnated with 2 mg/mL BSA solution),[5],0.53
same,M/P,[1]; [12],0.78
CN(C)CCC[C@@]1(c2ccc(F)cc2)OCc2cc(C#N)ccc21 [escitalopram],k HSA,[6],2.84
NC(N)=Nc1nc(CSCCC(N)=NS(N)(=O)=O)cs1 [famotidine],M/P,[1]; [11],1.5
same,CNS+/-,[7],1
same,M/P code,[3],4 (4 is M/P >1.20—dangerous)
CNCCC(Oc1ccc(C(F)(F)F)cc1)c1ccccc1 (stereo not shown) [fluoxetine],k HSA,[6],6.06
same,M/P,[1]; [11],0.68
CC(C)Cc1ccc(C(C)C(=O)O)cc1 (stereo not shown) [ibuprofen],BB vivo,[2],-0.180
O=C1Nc2ccc(Cl)cc2C(c2ccccc2Cl)=NC1O (stereo not shown) [lorazepam],log k HSA,[6],0.34
same,M/P,[1]; [11],0.205
same,CNS+/-,[7],1
same,M/P code,[3],1 (Code 1 corresponds to drugs with an M/P value <0.40—completely safe)
Nc1cc(N2CCCCC2)nc(N)[n+]1[O-] [minoxidil],M/P,[1]; [12],0.82
CC(C)(O)c1ccccc1CC[C@@H](SCC1(CC(=O)O)CC1)c1cccc(/C=C/c2ccc3ccc(Cl)cc3n2)c1 [montelukast],k HSA,[6],0.19
Cc1cc2c(s1)Nc1ccccc1N=C2N1CCN(C)CC1 [olanzapine],"NP (Rf, BSA-impregnated NP plate)",[4],0.29
same,"RP (Rf, BSA-impregnated RP plate)",[5],0.50
same,"CNP (Rf, control NP plate)",[8],0.28
same,"CRP (Rf, control RP plate)",[9],0.53
same,M/P,[1]; [11],0.38
same,PB,[10],0.175
Cc1nc2n(c(=O)c1CCN1CCC(c3noc4cc(F)ccc34)CC1)CCCC2 [risperidone],"NP (Rf, BSA-impregnated NP plate)",[4],0.29
same,"RP (Rf, BSA-impregnated RP plate)",[5],0.58
same,"CNP (Rf, control NP plate)",[8],0.29
same,"CRP (Rf, control RP plate)",[9],0.62
same,M/P,[1]; [11],0.26
same,BB vivo,[2],-0.020
CCN1CCCC1CNC(=O)c1cc(S(N)(=O)=O)ccc1OC (stereo not shown) [sulpiride],k HSA,[6],1.45
COc1cccc(C2(O)CCCCC2CN(C)C)c1 (stereo not shown) [tramadol],RP (Rf value from the RP plate impregnated with 2 mg/mL BSA solution),[5],0.64
Cc1ccc(-c2nc3ccc(C)cn3c2CC(=O)N(C)C)cc1 [zolpidem],"NP (Rf, BSA-impregnated NP plate)",[4],0.88
same,"RP (Rf, BSA-impregnated RP plate)",[5],0.77
same,log k HSA,[6],0.25
same,M/P,[1]; [11],0.15
same,M/P code,[3],1 (Code 1 corresponds to drugs with an M/P value <0.40—completely safe)
